# Ab-14 light chain CDR variants: yeast mating affinities

Source: Li et al. 2023 (doi:10.1038/s41467-023-39022-2), MIT Lincoln Laboratory and A-Alpha Bio; data file from the FLAb repository.

The target is the same throughout: PDVDLGDISGINAS, from the HR2 region of SARS-CoV-2 spike.

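The starting antibody came from a phage panning campaign against this peptide. Designed CDR sequences, proposed from the first random library and measured here. Several design methods are mixed in this list. Affinity was read by AlphaSeq, a pooled yeast mating assay with surface-displayed partners. Pairs that bind mate more often; barcode pairs of the diploids are counted by sequencing. Each replicate has its own calibration line, from reference interactions of the BCL2 family. There are six technical replicates.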

Each scFv is VH, the linker GGGGSGGGGSGGGGS, VL, as in the parent Ab-14, and differs from it in the CDRs of the light chain only.
VH: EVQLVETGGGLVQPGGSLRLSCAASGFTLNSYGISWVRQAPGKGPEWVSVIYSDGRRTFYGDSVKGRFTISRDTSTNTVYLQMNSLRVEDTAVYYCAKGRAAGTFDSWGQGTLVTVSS
VL: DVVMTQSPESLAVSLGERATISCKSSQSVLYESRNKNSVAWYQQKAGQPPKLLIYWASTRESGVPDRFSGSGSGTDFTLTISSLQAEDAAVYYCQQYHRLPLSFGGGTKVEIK

The parent's light chain CDRs are KSSQSVLYESRNKNSVA, WASTRES, QQYHRLPLS; each variant's own CDRs replace them letter for letter.
This list holds designs with at most six substitutions.
Each Kd is an estimate from the mating assay, the geometric mean of the replicates in which the pair was seen; lower is stronger.
"no signal" means that the variant was in the library but no mating with the target was seen in any replicate; the authors take this as a sign of poor binding, and no number exists.
The authors' rule: three or more of the six replicates give a measured affinity, fewer mean a poor binder.
Of ten entries with the parent sequence, four were seen in most replicates (averages 2.2 nM to 240 nM), three in one and three in none, so single entries are noisy.
The range of this assay differs from that of the first round, and the authors advise against merging the two.
Background: pairings of all light chain designs with three empty control strains gave a value in 4% of cases (median 430 nM, 5th percentile 38 nM). Values in that range, when seen in few replicates, are hard to tell from nonspecific mating. The control count says in how many pairings with the empty strains this scFv gave a signal.
Where one sequence has several entries in the source, the replicates are pooled.

Variant KLRQSTKYESRNQNSVA | HASTRES | QQYHRLPLS gave 2.0 nM (6 of 6 replicates; controls 0 of 18). Variant KMQQSWLYESRNKNSVA | NASQRES | QQYHRLPLS gave 230 pM (6 of 6 replicates; controls 0 of 18). Variant KLEQSHLYESRNKNSVA | NASTRLS | QQYHRLPLS showed 920 pM (6 of 6 replicates; controls 2 of 18). Variant KSSLKVGYESRNFNSVA | WASARES | QQYHTLPLS showed no signal (0 of 6 replicates; controls 0 of 18). Variant KVQQSMLYESRNKNNVA | AASDRES | QQYHRLPLS showed 940 pM (6 of 6 replicates; controls 1 of 18). Variant KSSQSMLTQSRNKNSVA | WASTRES | QQYGRLMLS showed no signal (0 of 6 replicates; controls 0 of 18). Variant KFSQSVLYEQRNKNSVA | EASTRES | QQYHRLPLS showed 430 pM (6 of 6 replicates; controls 0 of 18).

Variant KLSQSVLYESVNKNSVA | DASTRES | QQYHRLPLS gave 10 nM (6 of 6 replicates; controls 0 of 18). Variant KQSQSVLYESRNKNSVA | AASTRES | QQYHRLPLS showed 2.4 nM (12 of 12 replicates; controls 1 of 36). With KLRTSVEYGSRNKNSVA | SASTRES | QQYHRLPLS the result was 750 pM (6 of 6 replicates; controls 3 of 18). Variant KFRQSTLYESRNKNSVA | NASTRES | QQYHRLPLS showed 2.4 nM (6 of 6 replicates; controls 1 of 18). For KSSISYLGEKANKNSVA | EASTRES | QQYHRLPLS, the assay gave 2.1 nM (6 of 6 replicates; controls 1 of 18). With DQSQSVLYESRNKNSVA | DFSTRES | QQYHRLPLS the result was 1.4 nM (6 of 6 replicates; controls 1 of 18). With KSSFSVLFQSRNKNSVA | DASTRES | QQYHRLPLS the result was 2.4 nM (6 of 6 replicates; controls 3 of 18).

Variant KLQQSVEYESRNKNSVA | SASTRLS | QQYHRLPLS gave 660 pM (6 of 6 replicates; controls 2 of 18). For KFSQSVLYESRTKNSVA | NGSTRES | QWYHRLPLS, the assay gave 11 nM (1 of 6 replicates; controls 0 of 18). Variant KQSDSVLQESRNKNSVA | DASTRES | SQYHRLTLS gave 26 nM (6 of 6 replicates; controls 0 of 18). For KLDQGELYESRNKNSVA | GASTRES | QQYHRLPLS, the assay gave 560 pM (6 of 6 replicates; controls 0 of 18). Variant KSLQSVDYESRNKNSVA | HASTRED | QQYHRLPLS showed 57 nM (2 of 6 replicates; controls 0 of 18). Variant KVSPSDLYESRNKNSVA | EASTRES | QQYHRLPLS showed no signal (0 of 6 replicates; controls 0 of 18). With HSSPSKLYESRNKNNVA | NASTRES | QQYHRLPLS the result was 4.9 nM (6 of 6 replicates; controls 2 of 18).

With KFSQSELYESRNKNSVA | NASQRCS | QQYHRLPLS the result was 660 pM (6 of 6 replicates; controls 2 of 18). Variant KSSQSVLYESRNKNSVA | DAHTRES | QQYHRLPLS showed 3.1 nM (6 of 6 replicates; controls 0 of 18). Variant KMSQSVLMESRNSNSVA | DASTRES | QQYHRLPLS gave 9.7 nM (6 of 6 replicates; controls 1 of 18). Variant KLSQSVLYESRNSNSVA | EASTRED | QQYHRLPLS gave 1.1 nM (6 of 6 replicates; controls 6 of 18). Variant KSSQSFLYESRNKNSVA | GASTRES | QNYHRLPLS showed 1.8 nM (6 of 6 replicates; controls 3 of 18). With KSSQSVPFSSRNKNSVA | TRSTRES | QQYHRLPLS the result was no signal (0 of 6 replicates; controls 0 of 18). With KLHQSVGYESRNKNSVA | GGSQRES | QQYHRLPLS the result was 870 pM (6 of 6 replicates; controls 1 of 18).

Variant KSSQSMLYESRNKNSVA | WASTRES | QQYHRLPLS gave 560 nM (4 of 6 replicates; controls 1 of 18). Variant HSSPSVLYESRNFNSVA | NASTRES | QQYHRLPLS showed 2.1 nM (6 of 6 replicates; controls 2 of 18). Variant KLPQSYLYESRNKNSVA | HASTRES | QQYHRLPLS showed 520 pM (6 of 6 replicates; controls 0 of 18). Variant KFSESVLYESRNKNSVA | MAQTRES | SSYHRLPLS showed 190 nM (5 of 6 replicates; controls 1 of 18).

The first 2 entries again:

CDR-L1	CDR-L2	CDR-L3	apparent Kd	replicates with signal	control signals
KLRQSTKYESRNQNSVA	HASTRES	QQYHRLPLS	2.0 nM	6 of 6	0 of 18
KMQQSWLYESRNKNSVA	NASQRES	QQYHRLPLS	230 pM	6 of 6	0 of 18